# From the Kinase Knowledgebase extract (Sharma et al. 2016)
# Chains of the proteins cited; added tags and fusions are not shown. Lines headed by an entry give the natural chain unless they say otherwise; changes in a name come on top.
# UniProt P42338: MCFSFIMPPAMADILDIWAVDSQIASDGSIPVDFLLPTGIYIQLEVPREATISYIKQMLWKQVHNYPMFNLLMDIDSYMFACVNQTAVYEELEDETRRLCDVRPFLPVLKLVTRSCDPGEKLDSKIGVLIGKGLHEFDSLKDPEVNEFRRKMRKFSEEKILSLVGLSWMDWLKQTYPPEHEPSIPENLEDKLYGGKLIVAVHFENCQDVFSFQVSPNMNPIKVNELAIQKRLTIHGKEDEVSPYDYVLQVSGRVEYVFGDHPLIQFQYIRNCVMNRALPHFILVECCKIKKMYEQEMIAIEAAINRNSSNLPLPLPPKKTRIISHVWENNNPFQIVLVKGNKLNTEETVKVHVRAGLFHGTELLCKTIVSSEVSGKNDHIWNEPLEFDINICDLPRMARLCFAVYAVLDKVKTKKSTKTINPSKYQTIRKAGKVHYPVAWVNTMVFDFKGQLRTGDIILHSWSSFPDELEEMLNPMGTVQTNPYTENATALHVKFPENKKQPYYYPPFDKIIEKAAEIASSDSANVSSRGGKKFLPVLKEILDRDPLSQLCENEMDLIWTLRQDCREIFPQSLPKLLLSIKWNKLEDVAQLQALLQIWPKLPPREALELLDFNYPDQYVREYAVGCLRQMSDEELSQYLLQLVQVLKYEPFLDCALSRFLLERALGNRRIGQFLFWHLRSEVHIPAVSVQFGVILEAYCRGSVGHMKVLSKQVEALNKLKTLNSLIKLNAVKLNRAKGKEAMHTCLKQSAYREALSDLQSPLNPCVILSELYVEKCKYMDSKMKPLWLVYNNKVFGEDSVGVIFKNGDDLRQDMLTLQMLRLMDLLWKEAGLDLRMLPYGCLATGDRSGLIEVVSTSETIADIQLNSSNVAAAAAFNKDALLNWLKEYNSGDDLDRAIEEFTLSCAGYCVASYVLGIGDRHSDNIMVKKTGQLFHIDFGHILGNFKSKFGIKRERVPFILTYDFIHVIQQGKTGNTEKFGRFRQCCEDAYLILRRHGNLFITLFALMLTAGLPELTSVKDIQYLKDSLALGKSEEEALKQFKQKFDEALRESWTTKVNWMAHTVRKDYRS
# Molecular target: PIK3CB (Human) (UniProt P42338)
# Test: Enzyme Assay
row,IC50 [µM],Compound
1,11,O=c1cc(N2CCOCC2)oc2c(-c3ccccc3)cccc12
2,0.005,Cc1cc(C(C)Nc2ccccc2)c2nc(N3CCOCC3)cc(=O)n2c1 (configuration not stated)
